## Yeast mating assay B: variants of the scFv Ab-14

Target peptide (SARS-CoV-2 spike, HR2 region): PDVDLGDISGINAS

Parent scFv Ab-14: VH joined to VL by a 15-residue (Gly4Ser)3 linker. Changes lie in the heavy chain CDRs alone.
VH: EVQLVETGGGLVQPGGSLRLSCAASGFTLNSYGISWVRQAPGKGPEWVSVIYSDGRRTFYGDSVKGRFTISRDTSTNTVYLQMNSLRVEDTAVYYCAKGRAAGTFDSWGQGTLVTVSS
VL: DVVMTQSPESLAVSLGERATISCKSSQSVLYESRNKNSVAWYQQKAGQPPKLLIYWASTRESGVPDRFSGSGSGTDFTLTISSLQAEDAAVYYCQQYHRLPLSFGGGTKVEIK

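Designed CDR sequences, proposed from the first random library and measured here. Group labels follow the data file (Ctrl: baseline library sampled from a position-specific scoring matrix, with some repeated check sequences; Rand: our label for a block that the file lists under HC and that is probably the random mutants of the ten best first-round binders; GP: Gaussian process model; GPLM: also part of the Gaussian process libraries; HC: hill climbing; Gen: genetic algorithm; Gibbs: Gibbs sampling; a sequence that several methods proposed may carry one label only). The assay is AlphaSeq: two haploid yeast populations carry antibody and antigen on their surface. After mating in shaken culture at 30 °C for 16 h, diploids were selected and their barcode pairs sequenced. Each replicate has its own calibration line, from reference interactions of the BCL2 family. There are six technical replicates.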

Changes read parent residue, position, new residue, counted from the first residue of the VH shown. Variants here have at most six changes. The read-out is the apparent dissociation constant on a log10 scale (nM): the lower, the stronger. Replicates are averaged; those with no signal do not enter the mean. "no signal" means that the variant was in the library but no mating with the target was seen in any replicate; the authors take this as a sign of poor binding, and no number exists. The list is sorted by this average, lowest first, undetected variants last. The authors' rule: three or more of the six replicates give a measured affinity, fewer mean a poor binder.

- T28E/S31E/F59Y/A101T [GP_Gen]: -1.14 (2 of 6 replicates; controls 0 of 18)
- T28D/G61A/S63R/A101T/S107T [GP_Gibbs]: -0.10 (6 of 6 replicates; controls 0 of 18)
- T28E/G61T/R100K/A101E [GPLM_Gibbs]: -0.09 (6 of 6 replicates; controls 0 of 18)
- T28H/F59A/A101Q [GP_Gen]: -0.03 (4 of 6 replicates; controls 0 of 18)
- T28S/G61A/R100K/A101L [GPLM_Gen]: 0.05 (6 of 6 replicates; controls 0 of 18)
- T28D/R100F/A101T [GP_Gen]: 0.09 (6 of 6 replicates; controls 0 of 18)
- G26K/S53A/R100E [GPLM_Gibbs]: 0.36 (6 of 6 replicates; controls 0 of 18)
- T28D/G61T/R100Q/A101T [GPLM_Gen]: 0.41 (6 of 6 replicates; controls 0 of 18)
- T28E/G61S/R100Q/A101V/S107T [GP_Gibbs]: 0.46 (6 of 6 replicates; controls 0 of 18)
- T28S/G61D/S63N/R100Q/A101L [GP_HC]: 0.57 (6 of 6 replicates; controls 0 of 18)
- T28D/S31E/R100E/S107L [GP_Gibbs]: 0.58 (6 of 6 replicates; controls 0 of 18)
- T28S/R100Q/S107A [GPLM_Gen]: 0.74 (6 of 6 replicates; controls 0 of 18)
- N30A/S31E/G103V/S107Q [Rand]: 0.92 (4 of 6 replicates; controls 0 of 18)
- T28N/S63M/A101T [GP_Gen]: 1.11 (2 of 6 replicates; controls 0 of 18)
- T28D/G61A/S63A/R100N [GP_Gen]: 1.19 (6 of 6 replicates; controls 1 of 18)
- S31K/A101Q [Ctrl]: 1.42 (4 of 6 replicates; controls 0 of 18)
- T28D/R56K/S63R/A101Q [GP_Gen]: 1.42 (5 of 6 replicates; controls 0 of 18)
- T28D/G61Q/S63R/R100Q [GP_Gibbs]: 2.02 (5 of 6 replicates; controls 1 of 18)
- N30T/T58V/D106N [Ctrl]: 2.10 (4 of 6 replicates; controls 0 of 18)
- T28H/G61D/R100M/A101L [GP_HC]: 2.31 (5 of 6 replicates; controls 1 of 18)
- R56Q/G61I/A101Q [GP_Gibbs]: 2.34 (4 of 6 replicates; controls 0 of 18)
- S53A/S63D/D106T [GPLM_HC]: 2.90 (2 of 6 replicates; controls 0 of 18)
- D62P/R100I/D106E [Ctrl]: no signal (0 of 6 replicates; controls 0 of 18)
- S31E/S53C/R57H/G103V/D106V/S107Q [Rand]: no signal (0 of 6 replicates; controls 0 of 18)
- N30H/D62I/F105A/D106L [Rand]: no signal (0 of 6 replicates; controls 0 of 18)
- S53G/R100S/S107Q [Ctrl]: no signal (0 of 6 replicates; controls 0 of 18)
- T28E/R100K/A101T/S107N [GP_Gibbs]: no signal (0 of 6 replicates; controls 0 of 18)
- T28D/T104R/D106N [GP_HC]: no signal (0 of 6 replicates; controls 0 of 18)
- S31E/D62P/G103V/S107Q [GP_HC]: no signal (0 of 6 replicates; controls 0 of 18)
- G26K/N30G/S53A/T104Q/F105N/D106K [Rand]: no signal (0 of 6 replicates; controls 0 of 18)
- S31D/S35Y/G61N/A101R/G103L/D106I [Rand]: no signal (0 of 6 replicates; controls 0 of 18)
- G26R/F27A/T28N/S31D/G61S/G103L [Ctrl]: no signal (0 of 6 replicates; controls 1 of 18)
- T28H/R56C/A101L [Ctrl]: no signal (0 of 6 replicates; controls 0 of 18)

Top 2 of the variants detected in all replicates, tightest first:

| changes | group | mean log10 Kd (nM) | detected | control signals |
|---|---|---|---|---|
| T28D/G61A/S63R/A101T/S107T | GP_Gibbs | -0.10 | 6 of 6 | 0 of 18 |
| T28E/G61T/R100K/A101E | GPLM_Gibbs | -0.09 | 6 of 6 | 0 of 18 |

Of ten entries with the parent sequence, four were seen in most replicates (averages 0.34 to 2.37), three in one and three in none, so single entries are noisy. A sequence measured in both rounds can read differently, since the two assays cover different ranges. Background: pairings of all heavy chain designs with three empty control strains gave a value in 1% of cases (median 2.08, 5th percentile 0.84). Values in that range, when seen in few replicates, are hard to tell from nonspecific mating. The control count says in how many pairings with the empty strains this scFv gave a signal.

Reference: Li et al. 2023, doi:10.1038/s41467-023-39022-2. File: FLAb, binding data.